According to paper PMC6728138, “Quantitative mapping of protein-peptide affinity landscapes using spectrally encoded beads” (eLife, 2019):
Where two headings read alike, the source gives them in different places.

Tests used:
[1] = target: T1, calcineurin (CN) heterodimer, wild type: N-terminally 6-His-tagged human calcineurin A truncated at residue 400 with the calcineurin B subunit, Q08209;P63098; experiment: MRBLE-pep (peptides on spectrally encoded beads); conditions: parent: est. 0.0 kcal/mol; read off a plot
[2] = target: T1, calcineurin (CN) heterodimer, wild …; experiment: MRBLE-pep (full calibration library, calibrated Kd); conditions: chain shown with the change;; read off a plot
[3] = target: T2, calcineurin (CN) heterodimer, wild type: N-terminally 6-His-tagged human calcineurin A truncated at residue 400 with the calcineurin B subunit, Q08209; conditions: modification not given
[4] = target: T2, calcineurin (CN) heterodimer, wild …; conditions: modification not given; remark: listed apart in the source
[5] = target: T2, calcineurin (CN) heterodimer, wild …; conditions: modification not given; remark: listed apart in the source
[6] = target: T2, calcineurin (CN) heterodimer, wild …; conditions: modification not given; remark: listed apart in the source
[7] = target: T2, calcineurin (CN) heterodimer, wild …; conditions: modification not given; remark: listed apart in the source
[8] = target: T2, calcineurin (CN) heterodimer, wild …; conditions: modification not given; remark: listed apart in the source
[9] = target: T2, calcineurin (CN) heterodimer, wild …; conditions: modification not given; remark: listed apart in the source
[10] = target: T2, calcineurin (CN) heterodimer, wild …; conditions: modification not given; remark: listed apart in the source
[11] = target: T2, calcineurin (CN) heterodimer, wild …; conditions: modification not given; remark: listed apart in the source
[12] = target: T2, calcineurin (CN) heterodimer, wild …; conditions: modification not given; remark: listed apart in the source
[13] = target: T2, calcineurin (CN) heterodimer, wild …; conditions: modification not given; remark: listed apart in the source
[14] = target: T2, calcineurin (CN) heterodimer, wild …; conditions: modification not given; remark: listed apart in the source
[15] = target: T2, calcineurin (CN) heterodimer, wild …; conditions: modification not given; remark: listed apart in the source
[16] = target: T2, calcineurin (CN) heterodimer, wild …; conditions: modification not given; remark: listed apart in the source
[17] = target: T2, calcineurin (CN) heterodimer, wild …; conditions: modification not given; remark: listed apart in the source
[18] = target: T2, calcineurin (CN) heterodimer, wild …; conditions: modification not given; remark: listed apart in the source
[19] = target: T2, calcineurin (CN) heterodimer, wild …; conditions: modification not given; remark: listed apart in the source
[20] = target: T2, calcineurin (CN) heterodimer, wild …; conditions: modification not given; remark: listed apart in the source
[21] = target: T2, calcineurin (CN) heterodimer, wild …; conditions: modification not given; remark: listed apart in the source
[22] = target: T2, calcineurin (CN) heterodimer, wild …; conditions: modification not given; remark: listed apart in the source
[23] = target: T2, calcineurin (CN) heterodimer, wild …; conditions: modification not given; remark: listed apart in the source
[24] = target: T2, calcineurin (CN) heterodimer, wild …; conditions: modification not given; remark: listed apart in the source

A ddG [1] of 0.1 kcal/mol was found for AGPHPKIFITGPHEE [PKIVIT peptide (PVIVIT scaffold with V2K) V4F] in this work.

A Kd [2] of 1000 nM was found for LPRIEITPSH [NFATc2 PxIxIT peptide (WT …) S-1L] in this work.

A Kd [3] of 10 nM was found for IPKIIVTAPTEE in this work.

A Kd [4] of 1190 nM was found for HPKIVITTPHEE in this work.

A Kd [5] of 2060 nM was found for KRMEPIAIYITDTEIS in this work.

A Kd [6] of 300 nM was found for IPKIIITYPGEE in this work.

A Kd [7] of 240 nM was found for HPLIVITGPHEE in this work.

A Kd [8] of 1640 nM was found for ASGLSPRIAITPSHEL in this work.

A Kd [9] of 5740 nM was found for HPKIVLTGPHEE in this work.

A Kd [10] of 3800 nM was found for ASGLSPRIEIFPSHEL in this work.

A Kd [11] of 680 nM was found for KRMEPPAIIITDTEIS in this work.

A Kd [12] of 2650 nM was found for ASGLSPRIEITPFHEL in this work.

A Kd [13] of 680 nM was found for VPKIIITYPGEE in this work.

A Kd [14] of 160 nM was found for TPKIVITGPHEE in this work.

A Kd [15] of 420 nM was found for ASGLSPRILITPSHEL in this work.

A Kd [16] of 420 nM was found for KRMEPIAIIITKTEIS in this work.

A Kd [17] of 130 nM was found for KRMEPPKIIITDTSIS in this work.

A Kd [18] of 3590 nM was found for HPKIVITNPHEE in this work.

A Kd [19] of 700 nM was found for KRMEPIAIIITDTTIS in this work.

A Kd [20] of 6340 nM was found for ASGLSPRIEISPSHEL in this work.

A Kd [21] of 350 nM was found for IPKIIVTYPDEE in this work.

A Kd [22] of 160 nM was found for KRMEPIAIIITRTEIS in this work.

A Kd [23] of 900 nM was found for MAGPHPSIVITGPHEE [PSIVIT] in this work.

A Kd [24] of 20 nM was found for IPKIIITYPTEE in this work.
